# According to patent publication US11806393B2, “Flavivirus peptide sequences, epitopes, and methods and uses thereof” (priority 2017, dated 2023):
# What was measured:
# Format in all cases: cell-based, mouse
# CD8+ T cells [1] = assay: IFNγ ELISPOT, ZIKV-infected Ifnar-/- HLA-B*0702 transgenic mice; settings: HLA-B*0702 mice
# CD8+ T cells [2] = assay: IFNγ ELISPOT, DENV2 S221-infected Ifnar-/- HLA-B*0702 transgenic mice; settings: HLA-B*0702 mice, 7 days after 2×10^4 FFU DENV2 S221
# CD3+CD8+ T cells = assay: IFNγ ICS, ZIKV-infected Ifnar-/- HLA-B*0702 transgenic mice; settings: HLA-B*0702 mice
# CD8+ T cells [3] = assay: IFNγ ICS, DENV2 S221-infected Ifnar-/- HLA-B*0702 transgenic mice; settings: HLA-B*0702 mice
# CD44+CD62L- CD8+ T cells = assay: ICS, peptide-immunized Ifnar-/- HLA-B*0702 mice challenged with ZIKV; settings: mice immunized with the 4 ZIKV/DENV cross-reactive peptides, day 3 after ZIKV challenge
sequence,measurement,setting,value
APTRVVAAEM [FSS/MR-NS3206-215],"SFC/10^6 CD8+ T cells, FSS13025",CD8+ T cells [1]; 7 days after 1×10^2 FFU ZIKV FSS13025,749 SFC/10^6 CD8+ T cells
same,"SFC/10^6 CD8+ T cells, MR766",CD8+ T cells [1]; 7 days after 1×10^2 FFU ZIKV MR766,724 SFC/10^6 CD8+ T cells
same,immunodominance in IFNγ ELISPOT,"CD8+ T cells [1]; immunodominant: >500 SFCs/10^6 CD8+ T cells, shared by both ZIKV strains",immunodominant
same,"SFC/10^6 CD8+ T cells, S221",CD8+ T cells [2],606 SFC/10^6 CD8+ T cells
same,"% IFNγ+ CD8+ T cells, FSS13025","CD3+CD8+ T cells; 7 days after ZIKV FSS13025, ICS",(0.3%)
same,"% IFNγ+ CD8+ T cells, MR766","CD3+CD8+ T cells; 7 days after ZIKV MR766, ICS",(0.53%)
same,"% IFNγ+ CD8+ T cells, S221","CD8+ T cells [3]; 7 days after DENV2 S221, ICS",(0.33%)
same,ZIKV/DENV cross-reactivity in DENV2-infected mice (IFNγ ELISPOT and IFNγ ICS),"CD8+ T cells [3]; DENV2 S221, 7 days",positive in both IFNγ ELISPOT and IFNγICS assays
same,percentage of epitope-specific cells among antigen experienced (CD44+CD62L-) CD8+ T cells,CD44+CD62L- CD8+ T cells,0.66±0.24%
